By UniProt entry, the sequences of proteins in these tests, tags left out. Where a name states a change or a piece, a line headed by the entry shows the natural chain unless it says otherwise.
UniProt Q53I06: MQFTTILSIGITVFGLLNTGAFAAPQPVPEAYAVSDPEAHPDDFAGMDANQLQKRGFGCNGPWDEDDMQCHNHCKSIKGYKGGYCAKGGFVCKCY

According to PMC11222147, “Host defence peptide plectasin targets bacterial cell wall precursor lipid II by a calcium-sensitive supramolecular mechanism” (Nature Microbiology, 2024):

Target: plectasin (Pseudoplectania nigrella, UniProt Q53I06)
Test: intrinsic tryptophan (W8) fluorescence titration
Conditions: neutral DOPC LUVs, 2 mol% lipid II, no bivalent ions (100 uM EDTA), 50 mM HEPES, 150 mM NaCl, pH 7.2, 20 °C

lipid II showed a Kd of 155 nM.
